Test results reported in patent US10385089B2, “Thionucleoside derivative or salt thereof, and pharmaceutical composition” (FUJIFILM Corporation, priority 2014, dated 2019).

system: gemcitabine-resistant strain of pancreatic cancer cell line Capan-1 (ATCC Number: HTB-79); assay: Gemcitabine-resistant cell growth inhibition test (CellTiter Glo, total cellular ATP); conditions: Homo sapiens, CAPAN-1, 72 h, read-out: Growth inhibitory activity IC50 (μmol/L)

Compound	IC50 [µmol/L]
C[C@H](NP(=O)(OC[C@H]1S[C@@H](n2ccc(N)nc2=O)[C@@H](F)[C@@H]1O)Oc1ccccc1)C(=O)OCc1ccccc1 (mixture of isomers) [Example 1-1, (2S)-benzyl 2-(((RS)-(((2R,3S,4S,5R)-5-(4-amino-2-oxopyrimidin-1(2H)-yl)-4-fluoro-3-hydroxytetrahydrothiophen-2-yl)methoxy)(phenoxy)phosphoryl)amino)propanoate]	< 2
COC(=O)[C@H](C)NP(=O)(OC[C@H]1S[C@@H](n2ccc(N)nc2=O)[C@@H](F)[C@@H]1O)Oc1ccc(Cl)cc1 (mixture of isomers) [Example 1-2-5, (2S)-methyl 2-(((RS)-(((2R,3S,4S,5R)-5-(4-amino-2-oxopyrimidin-1(2H)-yl)-4-fluoro-3-hydroxy-tetrahydrothiophen-2-yl)methoxy)(4-chlorophenoxy)phosphoryl)amino)propanoate]	< 2
CCOC(=O)[C@H](CC(C)C)NP(=O)(OC[C@H]1S[C@@H](n2ccc(N)nc2=O)[C@@H](F)[C@@H]1O)Oc1ccccc1 (mixture of isomers) [Example 2-2, (2S)-ethyl 2-(((RS)-(((2R,3S,4S,5R)-5-(4-amino-2-oxopyrimidin-1(2H)-yl)-4-fluoro-3-hydroxytetrahydrothiophen-2-yl)methoxy)(phenoxy)phosphoryl)amino)-4-methylpentanoate]	5 to 15
C[C@H](NP(=O)(OC[C@H]1S[C@@H](n2ccc(N)nc2=O)[C@@H](F)[C@@H]1O)Oc1ccc(Cl)cc1)C(=O)OCc1ccccc1 (mixture of isomers) [Example 3-1, (2S)-benzyl 2-(((RS)-(((2R,3S,4S,5R)-5-(4-amino-2-oxopyrimidin-1(2H)-yl)-4-fluoro-3-hydroxytetrahydrothiophen-2-yl)methoxy)(4-chlorophenoxy)phosphoryl)amino)propanoate]	5 to 15
COC(=O)[C@H](C)NP(=O)(OC[C@H]1S[C@@H](n2ccc(N)nc2=O)[C@@H](F)[C@@H]1O)Oc1ccccc1 (mixture of isomers) [Example 3-2, (2S)-methyl 2-(((RS)-(((2R,3S,4S,5R)-5-(4-amino-2-oxopyrimidin-1(2H)-yl)-4-fluoro-3-hydroxytetrahydrothiophen-2-yl)methoxy)(phenoxy)phosphoryl)amino)propanoate]	5 to 15
C[C@H](NP(=O)(OC[C@H]1S[C@@H](n2ccc(N)nc2=O)[C@@H](F)[C@@H]1O)Oc1ccccc1)C(=O)OC1CCC1 (mixture of isomers) [Example 4-1, (2S)-cyclobutyl 2-(((RS)-(((2R,3S,4S,5R)-5-(4-amino-2-oxopyrimidin-1(2H)-yl)-4-fluoro-3-hydroxytetrahydrothiophen-2-yl)methoxy)(phenoxy)phosphoryl)amino)propanoate]	2 to 5
C[C@H](NP(=O)(OC[C@H]1S[C@@H](n2ccc(N)nc2=O)[C@@H](F)[C@@H]1O)Oc1ccc(F)cc1)C(=O)OCc1ccccc1 (mixture of isomers) [Example 5-2-1, (2S)-benzyl 2-(((RS)-(((2R,3S,4S,5R)-5-(4-amino-2-oxopyrimidin-1(2H)-yl)-4-fluoro-3-hydroxytetrahydrothiophen-2-yl)methoxy)(4-fluorophenoxy)phosphoryl)amino)propanoate]	5 to 15
COC(=O)[C@H](C)NP(=O)(OC[C@H]1S[C@@H](n2ccc(N)nc2=O)[C@@H](F)[C@@H]1O)Oc1ccc(F)cc1 (mixture of isomers) [Example 5-2-2, (2S)-methyl 2-(((RS)-(((2R,3S,4S,5R)-5-(4-amino-2-oxopyrimidin-1(2H)-yl)-4-fluoro-3-hydroxytetrahydrothiophen-2-yl)methoxy)(4-fluorophenoxy)phosphoryl)amino)propanoate]	5 to 15
C[C@H](NP(=O)(OC[C@H]1S[C@@H](n2ccc(N)nc2=O)[C@@H](F)[C@@H]1O)Oc1ccc(Br)cc1)C(=O)OCc1ccccc1 (mixture of isomers) [Example 5-2-3, (2S)-benzyl 2-(((RS)-(((2R,3S,4S,5R)-5-(4-amino-2-oxopyrimidin-1(2H)-yl)-4-fluoro-3-hydroxytetrahydrothiophen-2-yl)methoxy)(4-bromophenoxy)phosphoryl)amino)propanoate]	5 to 15
COC(=O)[C@H](C)NP(=O)(OC[C@H]1S[C@@H](n2ccc(N)nc2=O)[C@@H](F)[C@@H]1O)Oc1ccc(Br)cc1 (mixture of isomers) [Example 5-2-4, (2S)-methyl 2-(((RS)-(((2R,3S,4S,5R)-5-(4-amino-2-oxopyrimidin-1(2H)-yl)-4-fluoro-3-hydroxytetrahydrothiophen-2-yl)methoxy)(4-bromophenoxy)phosphoryl)amino)propanoate]	2 to 5
COC(=O)[C@H](C)NP(=O)(OC[C@H]1S[C@@H](n2ccc(N)nc2=O)[C@@H](F)[C@@H]1O)Oc1ccc(I)cc1 (mixture of isomers) [Example 5-2-5, (2S)-methyl 2-(((RS)-(((2R,3S,4S,5R)-5-(4-amino-2-oxopyrimidin-1(2H)-yl)-4-fluoro-3-hydroxytetrahydrothiophen-2-yl)methoxy)(4-iodophenoxy)phosphoryl)amino)propanoate]	2 to 5
Cc1ccc(OP(=O)(N[C@@H](C)C(=O)OCc2ccccc2)OC[C@H]2S[C@@H](n3ccc(N)nc3=O)[C@@H](F)[C@@H]2O)cc1 (mixture of isomers) [Example 5-2-6, (2S)-benzyl 2-(((RS)-(((2R,3S,4S,5R)-5-(4-amino-2-oxopyrimidin-1(2H)-yl)-4-fluoro-3-hydroxytetrahydrothiophen-2-yl)methoxy)(p-tolyloxy)phosphoryl)amino)propanoate]	5 to 15
COc1ccc(OP(=O)(N[C@@H](C)C(=O)OCc2ccccc2)OC[C@H]2S[C@@H](n3ccc(N)nc3=O)[C@@H](F)[C@@H]2O)cc1 (mixture of isomers) [Example 5-2-8, (2S)-benzyl 2-(((RS)-(((2R,3S,4S,5R)-5-(4-amino-2-oxopyrimidin-1(2H)-yl)-4-fluoro-3-hydroxytetrahydrothiophen-2-yl)methoxy)(4-methoxyphenoxy)phosphoryl)amino)propanoate]	5 to 15
COC(=O)[C@H](C)NP(=O)(OC[C@H]1S[C@@H](n2ccc(N)nc2=O)[C@@H](F)[C@@H]1O)Oc1ccc(OC)cc1 (mixture of isomers) [Example 5-2-9, (2S)-methyl 2-(((RS)-(((2R,3S,4S,5R)-5-(4-amino-2-oxopyrimidin-1(2H)-yl)-4-fluoro-3-hydroxytetrahydrothiophen-2-yl)methoxy)(4-methoxyphenoxy)phosphoryl)amino)propanoate]	5 to 15
C[C@H](NP(=O)(OC[C@H]1S[C@@H](n2ccc(N)nc2=O)[C@@H](F)[C@@H]1O)Oc1ccc(Cl)c(F)c1)C(=O)OCc1ccccc1 (mixture of isomers) [Example 6-1, (2S)-benzyl 2-(((RS)-(((2R,3S,4S,5R)-5-(4-amino-2-oxopyrimidin-1(2H)-yl)-4-fluoro-3-hydroxytetrahydrothiophen-2-yl)methoxy)(4-chloro-3-fluorophenoxy)phosphoryl)amino)propanoate]	5 to 15
C[C@H](NP(=O)(OC[C@H]1S[C@@H](n2ccc(N)nc2=O)[C@@H](F)[C@@H]1O)Oc1ccc(Cl)c(Cl)c1)C(=O)OCc1ccccc1 (mixture of isomers) [Example 6-2-1, (2S)-benzyl 2-(((RS)-(((2R,3S,4S,5R)-5-(4-amino-2-oxopyrimidin-1(2H)-yl)-4-fluoro-3-hydroxytetrahydrothiophen-2-yl)methoxy)(3,4-dichlorophenoxy)phosphoryl)amino)propanoate]	5 to 15
C[C@H](NP(=O)(OC[C@H]1S[C@@H](n2ccc(N)nc2=O)[C@@H](F)[C@@H]1O)Oc1ccc(F)cc1F)C(=O)OCc1ccccc1 (mixture of isomers) [Example 6-2-2, (2S)-benzyl 2-(((RS)-(((2R,3S,4S,5R)-5-(4-amino-2-oxopyrimidin-1(2H)-yl)-4-fluoro-3-hydroxytetrahydrothiophen-2-yl)methoxy)(2,4-difluorophenoxy)phosphoryl)amino)propanoate]	5 to 15
C[C@H](NP(=O)(OC[C@H]1S[C@@H](n2ccc(N)nc2=O)[C@@H](F)[C@@H]1O)Oc1ccc(F)cc1Cl)C(=O)OCc1ccccc1 (mixture of isomers) [Example 6-2-3, (2S)-benzyl 2-(((RS)-(((2R,3S,4S,5R)-5-(4-amino-2-oxopyrimidin-1(2H)-yl)-4-fluoro-3-hydroxytetrahydrothiophen-2-yl)methoxy)(2-chloro-4-fluorophenoxy)phosphoryl)amino)propanoate]	5 to 15
CC(C)(C)C(=O)SCCOP(=O)(OC[C@H]1S[C@@H](n2ccc(N)nc2=O)[C@@H](F)[C@@H]1O)Oc1ccccc1 (mixture of isomers) [Example 14-1, S-(2-(((RS)-(((2R,3S,4S,5R)-5-(4-amino-2-oxopyrimidin-1(2H)-yl)-4-fluoro-3-hydroxytetrahydrothiophen-2-yl)methoxy)(phenoxy)phosphoryl)oxy)ethyl) 2,2-dimethylpropanethioate]	2 to 5
CC(C)(C)C(=O)SCCCCOP(=O)(OC[C@H]1S[C@@H](n2ccc(N)nc2=O)[C@@H](F)[C@@H]1O)Oc1ccccc1 (mixture of isomers) [Example 14-2, S-(4-(((RS)-(((2R,3S,4S,5R)-5-(4-amino-2-oxopyrimidin-1(2H)-yl)-4-fluoro-3-hydroxytetrahydrothiophen-2-yl)methoxy)(phenoxy)phosphoryl)oxy)butyl) 2,2-dimethylpropanethioate]	5 to 15
COc1cccc2c1OP(=O)(OC[C@H]1S[C@@H](n3ccc(N)nc3=O)[C@@H](F)[C@@H]1O)OC2 (mixture of isomers) [Example 26-2-4, 4-amino-1-((2R,3S,4S,5R)-3-fluoro-4-hydroxy-5-((((RS)-8-methoxy-2-oxido-4H-benzo[d][1,3,2]dioxaphosphinin-2-yl)oxy)methyl)tetrahydrothiophen-2-yl)pyrimidin-2(1H)-one]	5 to 15
C[C@H](NP(=O)(OC[C@H]1S[C@@H](n2ccc(N)nc2=O)[C@@H](F)[C@@H]1O)Oc1ccccc1)C(=O)OC1CCCCC1 (mixture of isomers) [Example 4-2, (25)-cyclohexyl 2-(((RS)-(((2R,3S,4S,5R)-5-(4-amino-2-oxopyrimidin-1(2H)-yl)-4-fluoro-3-hydroxytetrahydrothiophen-2-yl)methoxy)(phenoxy)phosphoryl)amino)propanoate]	5 to 15
